Experimental findings from article PMC10253817, “Design, Pharmacological Characterization, and Molecular Docking of Minimalist Peptidomimetic Antagonists of α4β1 Integrin” (International Journal of Molecular Sciences, 2023) are described below.

By UniProt entry, the sequences of proteins in these tests, tags left out. Residues count along the entry.
UniProt P13612, 34-1032, chain 1 of 2: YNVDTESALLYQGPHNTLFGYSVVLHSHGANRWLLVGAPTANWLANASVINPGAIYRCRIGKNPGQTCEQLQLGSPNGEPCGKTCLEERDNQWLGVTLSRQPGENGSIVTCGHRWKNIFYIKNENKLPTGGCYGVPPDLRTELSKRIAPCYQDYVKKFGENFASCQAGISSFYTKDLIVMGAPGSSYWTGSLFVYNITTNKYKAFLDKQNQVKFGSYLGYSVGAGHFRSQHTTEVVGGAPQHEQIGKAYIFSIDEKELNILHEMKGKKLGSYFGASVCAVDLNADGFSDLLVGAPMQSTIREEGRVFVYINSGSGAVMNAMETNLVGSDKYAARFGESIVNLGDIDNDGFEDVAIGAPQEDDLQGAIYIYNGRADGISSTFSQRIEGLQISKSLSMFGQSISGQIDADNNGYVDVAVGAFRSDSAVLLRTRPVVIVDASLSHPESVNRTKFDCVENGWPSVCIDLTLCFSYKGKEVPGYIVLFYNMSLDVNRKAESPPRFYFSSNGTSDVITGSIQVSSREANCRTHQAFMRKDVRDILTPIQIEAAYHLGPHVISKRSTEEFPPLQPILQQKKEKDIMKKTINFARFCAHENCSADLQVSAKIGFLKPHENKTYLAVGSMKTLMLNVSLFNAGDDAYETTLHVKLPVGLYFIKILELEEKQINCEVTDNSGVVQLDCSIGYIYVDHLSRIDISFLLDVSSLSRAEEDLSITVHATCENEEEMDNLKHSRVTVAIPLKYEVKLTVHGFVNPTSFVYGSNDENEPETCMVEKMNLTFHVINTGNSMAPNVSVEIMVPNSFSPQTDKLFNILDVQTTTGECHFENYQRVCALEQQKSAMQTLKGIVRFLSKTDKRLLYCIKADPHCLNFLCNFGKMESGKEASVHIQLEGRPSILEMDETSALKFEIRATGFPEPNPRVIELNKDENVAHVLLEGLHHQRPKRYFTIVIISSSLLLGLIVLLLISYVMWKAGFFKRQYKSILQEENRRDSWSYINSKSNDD

The assay concerns the target α4β1 integrin (human (endogenous in Jurkat E6.1)) (UniProt P13612). Put plainly: competitive binding of a fluorescent ligand on intact cells (plate reader); intact Jurkat E6.1 cells (50,000 cells/sample) in 0.1% BSA in HEPES buffer (NaCl 110 mM; KCl 10 mM; glucose 10 mM; MgCl2 1 mM; CaCl2 1.5 mM; HEPES 30 mM; pH 7.4); pre-incubated with competitor 10^-11-10^-5 M for 20-30 min at RT, then LDV-FITC (5 uM) for 30 min at RT; one-site competition fit, Ki from IC50 by the Cheng-Prusoff equation.

A word on the Ki: it is the dissociation constant of the complex between target and ligand, obtained from inhibition or displacement. BIO1211 (peptide) registered a Ki of 6.9 nM.
